In patent US20150219624A1, “METHODS FOR IDENTIFYING ANTI-CANCER COMPOUNDS” (MEMORIAL SLOAN KETTERING CANCER CENTER, priority 2013, published 2015):
Where “and” joins values, the source holds several entries; their conditions need not be identical. Equal values may be shown once.

Experiment: In vivo toxicity studies (body and organ weights, hematology, clinical chemistry, histopathology)
Method: Toxicity studies. Eight week-old C57Bl/6NTac female mice were randomly assigned to either control or treatment groups. Each treatment group received one daily dose of test article through i.p. injection over 5 consecutive days. Toxicity was monitored by weight loss and daily clinical observation for the 14 days following test article administration. 24 hours after the last test article administration 4 mice in each group were sacrificed and clinical chemistry, hematology and tissue specific histopathology were done at autopsy. The remaining mice (n=2 per group) were kept under observation for an additional 13 days; at that point all mice were sacrificed and clinical chemistry, hematology and tissue specific histopathology were done at time of autopsy.
D) KOPT-K1 xenograft studies.

[1] = 0.2 mg/kg Female, Day 19, individual animals
[2] = 0.2 mg/kg, female, Day 5, individual animals

## (±)-CR-31-B
0.2 mg/kg Female, Day 5, group mean, N 4
  Na/K, Mean: 35.5 Ratio
0.2 mg/kg Female, Day 19, group mean, N 2
  Na/K, Mean: 39.5 Ratio
[1]
  2D. Individual chemistry, column 9 (head not shown; probably A/G ratio): 1.6
  Na/K: 42 Ratio and 37 Ratio
0.2 mg/kg, female, Day 5, % change of mean vs vehicle
  A/G Ratio % ChVh: 0.0%
0.2 mg/kg, female, Day 5, group mean
  A/G Ratio: 1.7
[2]
  A/G Ratio: 1.8 and 1.7 (2×) and 1.5
  Na/K: 33 Ratio and 37 Ratio and 34 Ratio and 38 Ratio
